The target in this experiment is rat OFQ receptor (Rattus norvegicus, UniProt P35370). Put plainly: OFQ-R binding assay ([3H]-OFQ competition, 293s-OFQ-R membranes). Conditions: membranes of HEK-293s cells transfected with rat OFQ receptor, Ki from IC50 by Cheng and Prusoff.

The chains behind the UniProt entries cited, without tags or fusion partners. Where a name states a change or a piece, a line headed by the entry shows the natural chain unless it says otherwise.
UniProt P35370: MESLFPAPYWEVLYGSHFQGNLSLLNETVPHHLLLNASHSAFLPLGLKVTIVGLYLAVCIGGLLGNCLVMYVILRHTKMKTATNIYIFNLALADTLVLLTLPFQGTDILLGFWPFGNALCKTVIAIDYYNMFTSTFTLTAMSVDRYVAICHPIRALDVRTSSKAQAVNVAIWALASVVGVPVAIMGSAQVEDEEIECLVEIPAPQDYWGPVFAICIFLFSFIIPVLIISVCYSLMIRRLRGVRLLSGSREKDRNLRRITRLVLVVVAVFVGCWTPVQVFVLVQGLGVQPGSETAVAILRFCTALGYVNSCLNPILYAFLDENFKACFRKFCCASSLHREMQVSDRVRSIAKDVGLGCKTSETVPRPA

Here are results for two compounds from patent US6071925A (priority 1997, dated 2000).

Consider `CC(=O)N1CN(c2ccccc2)C2(CCN(C3CCc4c(Cl)ccc(Cl)c4C3)CC2)C1=O` (centres unmarked), for which the “affinity to the OFQ-receptor, given as pKi” value was 8.0.
For the compound `Cl.O=C1N(Cc2ccccc2)CN(c2ccccc2)C12CCN(C1CCc3c(Cl)ccc(Cl)c3C1)CC2` (centres unmarked), the “affinity to the OFQ-receptor, given as pKi” value stood at 7.9.
